Assay results reported in patent publication US10000483B2, “Bone marrow on X chromosome kinase (BMX) inhibitors and uses thereof” (Dana-Farber Cancer Institute, Inc., priority 2012, dated 2018).
pIC50: −log10 of the molar value.

Chains of the proteins cited; added tags and fusions are not shown. Residues count along the entry.
UniProt P00533, 25-1210 T790M: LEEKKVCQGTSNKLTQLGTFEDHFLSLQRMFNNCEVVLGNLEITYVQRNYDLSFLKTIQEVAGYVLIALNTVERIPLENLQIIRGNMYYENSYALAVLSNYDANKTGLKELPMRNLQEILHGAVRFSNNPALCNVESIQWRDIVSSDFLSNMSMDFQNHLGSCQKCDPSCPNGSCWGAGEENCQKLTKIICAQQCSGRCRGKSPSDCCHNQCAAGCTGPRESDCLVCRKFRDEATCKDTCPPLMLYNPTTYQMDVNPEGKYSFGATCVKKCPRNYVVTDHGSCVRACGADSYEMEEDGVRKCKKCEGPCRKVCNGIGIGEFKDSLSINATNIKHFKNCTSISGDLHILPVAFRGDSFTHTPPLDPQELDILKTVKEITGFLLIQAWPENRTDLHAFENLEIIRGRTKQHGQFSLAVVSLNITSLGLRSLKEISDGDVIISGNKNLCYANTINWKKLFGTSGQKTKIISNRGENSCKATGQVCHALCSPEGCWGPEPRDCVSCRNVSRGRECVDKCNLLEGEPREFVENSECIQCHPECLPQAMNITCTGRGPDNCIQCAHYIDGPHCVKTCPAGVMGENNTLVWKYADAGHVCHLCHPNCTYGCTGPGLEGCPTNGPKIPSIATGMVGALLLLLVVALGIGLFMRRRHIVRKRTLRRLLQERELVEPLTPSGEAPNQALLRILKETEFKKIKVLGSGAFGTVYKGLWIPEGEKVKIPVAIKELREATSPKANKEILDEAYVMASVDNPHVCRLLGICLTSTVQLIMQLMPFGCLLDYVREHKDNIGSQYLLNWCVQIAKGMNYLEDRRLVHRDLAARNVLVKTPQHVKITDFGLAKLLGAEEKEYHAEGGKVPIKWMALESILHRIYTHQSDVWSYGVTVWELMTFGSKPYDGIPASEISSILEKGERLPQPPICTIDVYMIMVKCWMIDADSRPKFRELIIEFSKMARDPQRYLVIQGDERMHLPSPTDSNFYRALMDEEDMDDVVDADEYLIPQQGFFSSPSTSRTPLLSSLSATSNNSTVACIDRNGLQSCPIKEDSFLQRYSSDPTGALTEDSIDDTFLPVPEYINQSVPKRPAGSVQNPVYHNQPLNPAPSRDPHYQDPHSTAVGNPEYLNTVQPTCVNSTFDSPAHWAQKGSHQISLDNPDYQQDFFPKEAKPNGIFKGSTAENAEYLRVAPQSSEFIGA

How the values were obtained:
[1] = tested on: TEL-JAK3 transformed Ba/F3 cells; assay: cells; details: Mus musculus, BaF3, read-out: GI50, TEL-JAK3
EGFR(T790M) = EGFR(T790M) (Homo sapiens (Human), UniProt P00533, T790M); assay: Invitrogen Select Screening in vitro kinase assay; type: biochemical

C=CC(=O)Nc1cc(-n2c(=O)ccc3cnc4ccc(-c5ccc(NS(C)(=O)=O)cc5)cc4c32)ccc1C [I-14]
GI50 [1]: 7.98 µM
pIC50 (EGFR(T790M)): 5.37
